Here are results for one compound from patent US6034215A, “3-amino-2-oxo-1-piperidnercetic derivatives as enzyme inhibitors” (Corvas International, Inc., priority 1997, dated 2000).

Usually Ki stands for a dissociation constant, usually derived from enzyme kinetics or from competition with a known ligand. Lower therefore signals higher affinity. What is called IC50 is the point on the concentration scale where inhibition reaches its midpoint.

One assay concerns the target human alpha-thrombin (Homo sapiens, UniProt P00734). In words: Kinetic analysis in an in vitro thrombin inhibition assay (Ki). The conditions noted are these: Table 1; Mean ± SD, n = 3; steady state velocities over 40 minutes; tested form: TFA.
The next assay has as its target human α-thrombin (Homo sapiens, UniProt P00734). In words: In vitro enzyme assay for specificity: Thrombin (fIIa) assay, IC50. The conditions noted are these: read-out: IC50 (nM) thrombin; Table 3; tested form: TFA.

Take `N=C(N)NCCC[C@@H](C=O)NC(=O)CN1CCC[C@H](NS(=O)(=O)Cc2ccccc2)C1=O`: on human alpha-thrombin, the Ki was found to be 1.01 nM. In addition, the IC50 at human α-thrombin is 6.2 nM.
